Source: publication PMC5791972 (2018)

By UniProt entry, the sequences of proteins in these tests, tags left out. Where a name states a change or a piece, a line headed by the entry shows the natural chain unless it says otherwise. Residues count along the entry.
UniProt P32241, 31-457: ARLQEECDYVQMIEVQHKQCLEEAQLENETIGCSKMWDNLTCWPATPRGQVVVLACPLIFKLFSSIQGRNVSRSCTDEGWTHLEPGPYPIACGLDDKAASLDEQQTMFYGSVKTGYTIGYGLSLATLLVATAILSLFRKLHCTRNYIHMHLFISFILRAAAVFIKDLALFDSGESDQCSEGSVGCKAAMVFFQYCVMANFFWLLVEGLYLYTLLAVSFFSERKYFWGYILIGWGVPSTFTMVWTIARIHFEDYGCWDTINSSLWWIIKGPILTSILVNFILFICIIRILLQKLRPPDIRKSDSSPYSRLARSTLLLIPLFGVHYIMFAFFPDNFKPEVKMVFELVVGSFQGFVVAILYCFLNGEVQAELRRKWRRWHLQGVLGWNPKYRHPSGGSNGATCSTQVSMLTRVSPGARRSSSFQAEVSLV
UniProt P37231: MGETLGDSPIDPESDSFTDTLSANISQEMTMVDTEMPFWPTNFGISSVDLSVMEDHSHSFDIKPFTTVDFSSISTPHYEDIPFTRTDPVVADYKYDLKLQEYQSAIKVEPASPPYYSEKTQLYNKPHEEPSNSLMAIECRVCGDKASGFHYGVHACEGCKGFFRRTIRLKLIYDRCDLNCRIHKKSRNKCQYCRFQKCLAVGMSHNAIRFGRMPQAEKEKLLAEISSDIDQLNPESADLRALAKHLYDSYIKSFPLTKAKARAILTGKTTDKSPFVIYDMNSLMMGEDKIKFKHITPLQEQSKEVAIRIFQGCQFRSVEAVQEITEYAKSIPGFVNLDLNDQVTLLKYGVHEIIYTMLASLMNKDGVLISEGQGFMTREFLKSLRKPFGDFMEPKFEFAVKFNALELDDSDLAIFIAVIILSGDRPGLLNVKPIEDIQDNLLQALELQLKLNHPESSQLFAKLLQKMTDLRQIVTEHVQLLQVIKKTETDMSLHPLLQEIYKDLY

What was measured:
Format in all cases: binding
VPAC1 (VIP1) (h) = VPAC1 (VIP1) (h) (Homo sapiens, UniProt P32241)
GABA transporter = GABA transporter (Rattus norvegicus, UniProt P23978)
PPARγ (h) = PPARγ (h) (Homo sapiens, UniProt P37231)

`CC[C@H](C)[C@H](NC(=O)[C@H](CO)NC(=O)[C@H](CC(N)=O)NC(=O)[C@H](CC(C)C)NC(=O)[C@H](Cc1ccc(O)cc1)NC(=O)[C@H](CCCCN)NC(=O)[C@H](CCCCN)NC(=O)[C@@H](NC(=O)[C@H](C)NC(=O)[C@H](CCSC)NC(=O)[C@H](CCC(N)=O)NC(=O)[C@H](CCCCN)NC(=O)[C@H](CCCNC(=N)N)NC(=O)[C@H](CC(C)C)NC(=O)[C@H](CCCNC(=N)N)NC(=O)[C@@H](NC(=O)[C@H](Cc1ccc(O)cc1)NC(=O)[C@H](CC(N)=O)NC(=O)[C@H](CC(=O)O)NC(=O)[C@@H](NC(=O)[C@H](Cc1ccccc1)NC(=O)[C@@H](NC(=O)[C@H](C)NC(=O)[C@H](CC(=O)O)NC(=O)[C@H](CO)NC(=O)[C@@H](N)Cc1c[nH]cn1)C(C)C)[C@@H](C)O)[C@@H](C)O)C(C)C)C(=O)N[C@@H](CC(C)C)C(=O)N[C@@H](CC(N)=O)C(N)=O` [reference compound] showed a nH (VPAC1 (VIP1) (h)) of 0.9.
`O=C(O)C1CCCNC1` (stereo not drawn) [reference compound] gave a nH (GABA transporter) of 0.8.
`CN(CCOc1ccc(CC2SC(=O)NC2=O)cc1)c1ccccn1` (stereo not drawn) [reference compound] was tested, and the nH (PPARγ (h)) was 0.9.
